Test results taken from BindingDB's records for 35526478.

The chains behind the UniProt entries cited, without tags or fusion partners. Residues count along the entry.
UniProt P06276, 29-602 limits assumed: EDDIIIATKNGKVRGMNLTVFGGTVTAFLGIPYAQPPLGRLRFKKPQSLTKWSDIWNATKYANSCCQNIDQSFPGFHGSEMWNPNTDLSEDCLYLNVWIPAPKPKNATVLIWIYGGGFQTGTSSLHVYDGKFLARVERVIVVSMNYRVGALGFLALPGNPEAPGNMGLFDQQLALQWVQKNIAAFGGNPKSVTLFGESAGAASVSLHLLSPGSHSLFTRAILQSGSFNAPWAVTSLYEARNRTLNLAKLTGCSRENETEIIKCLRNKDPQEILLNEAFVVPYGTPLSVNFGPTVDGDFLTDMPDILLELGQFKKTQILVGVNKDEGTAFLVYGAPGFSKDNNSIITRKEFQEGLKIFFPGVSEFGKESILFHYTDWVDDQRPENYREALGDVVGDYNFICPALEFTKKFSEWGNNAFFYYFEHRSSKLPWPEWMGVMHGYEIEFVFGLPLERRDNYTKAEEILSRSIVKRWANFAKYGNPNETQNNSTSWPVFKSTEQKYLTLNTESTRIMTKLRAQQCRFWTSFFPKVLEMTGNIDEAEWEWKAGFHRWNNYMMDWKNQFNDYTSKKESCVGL

Target: Cholinesterase (Homo sapiens, UniProt P06276)
Test: ASSAY_NAME: ChEMBL_2201900 (CHEMBL5114608) DESCRIPTION: Reactivation of tabun induced inhibition of BChE in human plasma using ATCh as substrate by Ellman's method

NC(=O)c1cc[n+](CCCC[n+]2ccc(/C=N/O)cc2)cc1
Ki: 420 µM
